Binding of CDR-mutated scFvs to a peptide of the spike HR2 region

Reference: Engelhart et al. 2022, doi:10.1038/s41597-022-01779-4. File: FLAb, binding data.

All variants were tested on one target, the spike HR2 peptide PDVDLGDISGINAS (SARS-CoV-2).

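Phage display of a naive human antibody library on the peptide gave the parent. Variants in AAYL52 differ from the parent at up to three CDR positions; double and triple changes were sampled at random. AlphaSeq pools MATa yeast showing the antibodies with MATalpha yeast showing the peptide. Binding brings cells together so that they mate, and sequencing counts the barcode pairs among the diploids. Scores were corrected for input abundance and mapped to Kd with protein pairs of known affinity run in the same pool. The assay was run in three technical replicates.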

Parent: Ab-95, a human scFv built as VH, three GGGGS repeats, VL. Only the CDRs of the light chain vary.
VH: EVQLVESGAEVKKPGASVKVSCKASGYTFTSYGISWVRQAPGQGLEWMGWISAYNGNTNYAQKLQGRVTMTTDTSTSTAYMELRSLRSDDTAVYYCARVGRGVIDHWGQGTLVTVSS
VL: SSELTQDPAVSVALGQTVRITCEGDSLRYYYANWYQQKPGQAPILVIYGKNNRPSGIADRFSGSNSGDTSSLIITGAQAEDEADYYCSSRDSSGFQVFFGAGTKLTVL

Variants are written as CDR1, CDR2 and CDR3 of the light chain (limits as in the source). Parent: EGDSLRYYYAN, GKNNRPS, SSRDSSGFQVF. Values are log10 of the apparent Kd in nM; lower means stronger binding. Where no diploid with the target was found in that replicate, the entry reads "ND": below detection, most likely a poor binder, though not proof of it.

CDR-L1	CDR-L2	CDR-L3	log10 Kd, replicates	signal with controls
HGDSLVYYYAN	GKNNRPS	SSRDSSGFPVF	2.87 2.79 3.23	6 of 9 (4.73)
EGDSLRYYYAN	CKNNRPS	SSRDSSGFKVA	3.79 ND ND	6 of 9 (3.87)
EGDSSRYYCAN	GKNNRPS	SSRCSSGFQVF	5.29 3.66 ND	4 of 9 (4.09)
EGDSLRYYYAN	GKNNYPS	SSRDSWGFQVF	ND ND ND	0 of 9
EGDSLRYYYAM	HKNNRPS	SSRNSSGFQVF	5.05 ND ND	0 of 9
EGTILRYYYAN	GKNNRPS	SSRDHSGFQVF	ND ND ND	0 of 9
YVDSLRYYYAN	IKNNRPS	SSRDSSGFQVF	4.31 ND ND	2 of 9 (3.64)
EGDSLEYYYAN	GKNNRPS	MSDDSSGFQVF	4.46 3.22 ND	3 of 9 (4.35)
EGDSLRNYYAN	GKNNWPS	ESRDSSGFQVF	3.79 4.60 ND	2 of 9 (4.39)
EGDSLRYYPAN	GKNNRPS	IDRDSSGFQVF	5.00 3.70 ND	2 of 9 (3.18)
EGQSLRQYYAN	GKNNRPS	SSMDSSGFQVF	ND ND ND	2 of 9 (3.37)
EGDSLRYYYAN	GKNNRPS	QSRDSSYKQVF	ND ND 2.94	0 of 9
EGDSLRYYYAN	GKNNRPS	SYRNSSGFVVF	2.52 2.47 2.36	1 of 9 (2.97)
EGWSLRYTYAN	GKNNRPS	SSRDSCGFQVF	2.28 2.23 1.91	2 of 9 (4.01)
EPDSLRYYYQN	GKNNRPS	SSRDSSAFQVF	3.37 5.63 3.69	6 of 9 (3.85)
EGDSLRYIYAN	GYNNRPS	SSRDSSGFQVF	4.14 3.43 4.10	3 of 9 (4.11)
EYDSLRYYYAN	GKNNRPS	SVRDSSGFQIF	3.53 3.48 2.91	2 of 9 (3.85)
EGNSLRYNYAN	GKNNRPS	SSRDSSEFQVF	ND 3.20 ND	2 of 9 (3.71)
EGDMLRYYYAS	GKNNRPS	SSRDSSGFQVW	5.10 4.58 4.85	3 of 9 (3.36)
EGDSLRYDYDN	GLNNRPS	SSRDSSGFQVF	4.31 ND ND	3 of 9 (3.69)
EGDSERYYYAN	SKNNRPH	SSRDSSGFQVF	ND ND ND	2 of 9 (3.10)
EDDSLRYYYAN	GKNNRPS	SSRDISGFQVT	3.91 3.84 4.28	2 of 9 (4.33)
EGDSLRYSYAC	GKNNRPS	SSRDSSGFQVF	2.83 2.75 2.88	1 of 9 (5.73)
EGDSLLYYYAN	GKNDRPS	SSRDSAGFQVF	3.08 3.49 3.10	0 of 9
EGDSLRYYYGN	GKNNRPS	SSRDSSYFQIF	2.66 3.60 1.93	3 of 9 (4.09)
IGDSLRYAYPN	GKNNRPS	SSRDSSGFQVF	1.12 1.01 0.61	4 of 9 (4.82)
GGDSLRYYYAN	GKHNRPS	SSRDSGGFQVF	2.98 3.95 4.61	5 of 9 (4.50)
EDDSLRPYYAN	GKNNRPS	SSRDSPGFQVF	ND ND 3.91	3 of 9 (4.10)
EKDSLRYYYAN	GKNNRPS	SSFDSSGRQVF	ND ND ND	2 of 9 (3.22)
EGDSLRYYYHN	GRNNRPS	SSRNSSGFQVF	4.04 3.69 3.71	4 of 9 (3.70)
LGDSLRYYYAN	GRFNRPS	SSRDSSGFQVF	ND ND 4.58	4 of 9 (4.25)
EGDSLRYLYCN	GKNNNPS	SSRDSSGFQVF	3.39 4.17 ND	4 of 9 (3.38)
EGDSLRYYYAN	PKNPRPS	SSRDSSLFQVF	ND ND ND	3 of 9 (4.17)
EGDSLRLYYSN	GKNNRPS	MSRDSSGFQVF	2.32 2.00 1.96	3 of 9 (4.55)
EGDSLRYYEAN	GKNNRPS	STKDSSGFQVF	3.25 2.95 3.28	0 of 9
EGDSLRYYYAN	GKNNRPS	CSRDSMWFQVF	2.06 3.00 1.67	0 of 9
EGDSLRYYYAN	GKNNRPS	GSRDSSGFRVD	3.54 ND 3.65	4 of 9 (4.02)
EGPSLRYYYAN	GRNNRPS	SSRDSSGFQVL	2.49 2.21 2.23	4 of 9 (4.30)
IGDSLRYYYAN	DKYNRPS	SSRDSSGFQVF	4.16 5.47 ND	0 of 9
EGDSLRPYYAN	NKNNRPS	SNRDSSGFQVF	3.98 3.47 ND	3 of 9 (3.92)
EGDSLRYYYAN	GKNNRPS	SSRDSSGFQMF	3.04 3.98 ND	1 of 9 (4.03)
EGDSLRRYYAN	GKNFRPS	SSGDSSGFQVF	3.57 ND ND	1 of 9 (3.06)
EGDSLRYYQAN	GKCNRPS	SSRDSSGFIVF	2.64 2.80 2.92	5 of 9 (3.74)
EGDSLEYYYAN	GKNNLPY	SSRDSSGFQVF	2.85 3.39 3.10	4 of 9 (3.94)
EGDSLRYYRAN	GKNNRPS	SSRDSSTFQVF	3.48 ND ND	1 of 9 (2.72)
EGDELRYYVAN	GRNNRPS	SSRDSSGFQVF	3.48 3.34 3.79	5 of 9 (4.23)
RGDFLRYTYAN	GKNNRPS	SSRDSSGFQVF	1.35 1.33 0.82	1 of 9 (2.97)
KGDSLRYKYAN	GKNNRPS	LSRDSSGFQVF	2.23 2.11 1.83	4 of 9 (3.85)
EGDSLRYCYAN	QKNNRPS	QSRDSSGFQVF	3.66 ND ND	3 of 9 (3.49)
EGDSLRKYYAN	CKNNRPS	WSRDSSGFQVF	3.95 5.09 3.60	6 of 9 (4.03)

Nonspecific signal, from three strains lacking the peptide, appeared in 28% of pairings of library AAYL52, centred on 3.91 (5% of these signals below 2.90); values are not corrected for it. Also given: how often the same scFv was detected with the empty control strains, with their mean in brackets. Parent in this assay: reference entry 2.31, copy in this library 2.25.